Here are results for one molecule from patent US6525059B1, “Substituted pyrazoles as p38 kinase inhibitors” (G. D. Searle & Company, priority 1998, dated 2003).

For the experiment, the system named is TNF-α. Briefly: Rat assay: LPS-challenged rats, serum TNF-α by ELISA. Format: in vivo. The following applies: Table 9, dose 20 mg/kg.

On to `CC1CCCCN1CCCNc1cc(-c2c[nH]nc2-c2ccc(F)cc2)ccn1` (stereo not shown), for which the “Rat LPS Assay % Inhibition” value is reported as 56 (20) %.
